# Assay results from ChEMBL document CHEMBL1125782, “Structure/activity studies related to 2-(3,4-dichlorophenyl)-N-methyl-N-[2-(1-pyrrolidinyl)-1-substituted- ethyl]acetamides: a novel series of potent and selective kappa-opioid agonists” (1991).
# Test system: Mus musculus
# Test: Antinociceptive activity against naloxone, after 3 mg/kg, sc administration in female mice(Alderley park strain),
# Settings: route subcutaneous
row,SMILES,ED50 [mg/kg]
1,CC(C)[C@@H](CN1CCCC1)N(C)C(=O)Cc1ccc(Cl)c(Cl)c1,0.05

# Test system: Mus musculus
# Test: Antinociceptive activity in acetic acid induced abdominal constriction assay after sc administration and abolished by naloxone administered at 3 mg/kg sc in mice
# Settings: route subcutaneous, Abdomen
row,SMILES,ED50 [mg/kg]
1,CCC(C)[C@@H](CN1CCCC1)N(C)C(=O)Cc1ccc(Cl)c(Cl)c1 (stereo partly specified),0.012
2,C[C@@H](CN1CCCC1)N(C)C(=O)Cc1ccc(Cl)c(Cl)c1,0.86
3,CN(C(=O)Cc1ccc(Cl)c(Cl)c1)C(CN1CCCC1)c1cccc(O)c1 (stereo unspecified),0.055
4,COc1ccc(C(CN2CCCC2)N(C)C(=O)Cc2ccc(Cl)c(Cl)c2)c(OC)c1 (stereo unspecified),0.19
5,COc1ccccc1C(CN1CCCC1)N(C)C(=O)Cc1ccc(Cl)c(Cl)c1 (stereo unspecified),0.04
6,COc1ccc(C(CN2CCCC2)N(C)C(=O)Cc2ccc(Cl)c(Cl)c2)cc1OC (stereo unspecified),0.05
7,CC(C)[C@@H](CN1CCCCC1)N(C)C(=O)Cc1ccc(Cl)c(Cl)c1,0.075
8,CNc1cccc(C(CN2CCCC2)N(C)C(=O)Cc2ccc(Cl)c(Cl)c2)c1 (stereo unspecified),0.081
9,CCC[C@@H](CN1CCCC1)N(C)C(=O)Cc1ccc(Cl)c(Cl)c1,0.12
10,CN(C(=O)Cc1ccc(Cl)c(Cl)c1)C(CN1CCCC1)c1ccc(O)cc1 (stereo unspecified),0.045
11,CC[C@@H](CN1CCCC1)N(C)C(=O)Cc1ccc(Cl)c(Cl)c1,0.43
12,CC(=O)Nc1cccc(C(CN2CCCC2)N(C)C(=O)Cc2ccc(Cl)c(Cl)c2)c1 (stereo unspecified),0.03
13,CN(C(=O)Cc1ccc(Cl)c(Cl)c1)C(CN1CCCC1)c1cccc(Cl)c1 (stereo unspecified),0.086
14,CN(C(=O)Cc1ccc(Cl)c(Cl)c1)C(CN1CCCC1)C(C)(C)C (stereo unspecified),0.03
15,CN(C(=O)Cc1ccc(Cl)c(Cl)c1)[C@H](CN1CC=CC1)c1ccccc1,0.005
16,COc1cccc(C(CN2CCCC2)N(C)C(=O)Cc2ccc(Cl)c(Cl)c2)c1 (stereo unspecified),0.03
17,CC(C)[C@H](CN1CCCC1)N(C)C(=O)Cc1ccc(Cl)c(Cl)c1,> 10
18,CSc1ccc(C(CN2CCCC2)N(C)C(=O)Cc2ccc(Cl)c(Cl)c2)cc1 (stereo unspecified),0.32
19,CC(C)C[C@@H](CN1CCCC1)N(C)C(=O)Cc1ccc(Cl)c(Cl)c1,0.01
20,COc1ccc(C(CN2CCCC2)N(C)C(=O)Cc2ccc(Cl)c(Cl)c2)cc1 (stereo unspecified),0.12
